Experimental data reported in ChEMBL document CHEMBL3808308, “Synergistic potentiation of (-)-lomaiviticin A cytotoxicity by the ATR inhibitor VE-821” (Bioorg Med Chem Lett, 2016).

System: K562
Assay: Potentiation of 2.5x10'-5 uM (-)-lomaiviticin A-induced cytotoxicity against human K562 cells assessed as fraction ratio affected at 5 uM after 24 hrs by cell titer-glo luminescence assay
Assay type: functional

`O=C(c1cc(Cc2n[nH]c(=O)c3ccccc23)ccc1F)N1CCN(C(=O)C2CC2)CC1` [OLAPARIB] showed a Ratio of 4.75 ×10⁻⁴ No_unit.
